Results as given in patent publication US20260235630A1 (EIKEN KAGAKU, published 2026).

The chains behind the UniProt entries cited, without tags or fusion partners. Residues count along the entry.
UniProt P69905, 2-142, chain 1 of 2: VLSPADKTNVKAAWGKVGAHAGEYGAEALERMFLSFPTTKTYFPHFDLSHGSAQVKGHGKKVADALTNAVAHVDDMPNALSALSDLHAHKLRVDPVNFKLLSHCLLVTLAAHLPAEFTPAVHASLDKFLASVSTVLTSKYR
Human hemoglobin, UniProt P68871, 2-147, chain 2 of 2: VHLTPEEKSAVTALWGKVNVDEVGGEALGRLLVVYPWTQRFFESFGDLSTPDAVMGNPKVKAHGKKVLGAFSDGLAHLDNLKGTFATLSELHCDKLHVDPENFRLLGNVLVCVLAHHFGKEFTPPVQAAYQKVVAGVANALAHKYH

Assays:
[1] = target: T1, Human hemoglobin (human, UniProt P69905 2-142; P68871 2-147); test: Hb value by OC-Hemodia Auto III reagent against sample without Hpt; Hpt 1 Unit (6.2 pmol/mL); no stool
[2] = target: T1, Human hemoglobin; test: Hb value by OC-Hemodia Auto III reagent against sample without Hpt; Hpt 2 Unit (12.4 pmol/mL); no stool
[3] = target: T1, Human hemoglobin; test: Hb value by OC-Hemodia Auto III reagent against sample without Hpt; Hpt 0.5 Unit (3.1 pmol/mL); no stool
[4] = target: T1, Human hemoglobin; test: Hb value by OC-Hemodia Auto III reagent against sample without Hpt; Hpt 1 Unit (9.3 pmol/mL); with stool
Experimental: (§1) The Hb values of these samples were measured using an Hb measurement reagent (OC-Hemodia® Auto III ‘Eiken’ available from EIKEN CHEMICAL CO., LTD.) and a fully automated fecal occult blood immunochemical analyzer (OC Sensor DIANA available from EIKEN CHEMICAL CO., LTD.). The measured values were used as the initial starting values.

[5] = target: T1, Human hemoglobin; test: Hb value by OC-Hemodia Auto III reagent against sample without Hpt; Hpt 0.25 Unit (1.55 pmol/mL); no stool
[6] = target: T1, Human hemoglobin; test: Hb value by OC-Hemodia Auto III reagent against sample without Hpt; Hpt 0.5 Unit (4.65 pmol/mL); with stool
[7] = target: T1, Human hemoglobin; test: Hb value by OC-Hemodia Auto III reagent against sample without Hpt; Hpt 0.125 Unit (0.775 pmol/mL); no stool
[8] = target: T1, Human hemoglobin; test: Hb value by OC-Hemodia Auto III reagent against sample without Hpt; Hpt 0.25 Unit (2.325 pmol/mL); with stool
Experimental: as §1

[9] = target: T1, Human hemoglobin; test: 59.4 µg/mL human Hb mixed with Hpt original solution at 0.125% (vol/vol); free Hb read with latex reagent No. 16 + No. 11
[10] = target: T1, Human hemoglobin; test: 59.4 µg/mL human Hb mixed with Hpt original solution at 0.250% (vol/vol); free Hb read with latex reagent No. 16 + No. 11
[11] = target: T1, Human hemoglobin; test: 59.4 µg/mL human Hb mixed with Hpt original solution at 0.500% (vol/vol); free Hb read with latex reagent No. 16 + No. 11
[12] = target: T1, Human hemoglobin; test: 59.4 µg/mL human Hb mixed with Hpt original solution at 1.000% (vol/vol); free Hb read with latex reagent No. 16 + No. 11

B1: Human Hpt (type 1-1), without enzyme treatment (other)
chain: VDSGNDVTDIADDGCPKPPEIAHGYVEHSVRYQCKNYYKLRTEGDGVYTLNNEKQWINKAVGDKLPECEAVCGKPKNPANPVQRILGGHLDAKGSFPWQAKMVSHHNLTTGATLINEQWLLTTAKNLFLNHSENATAKDIAPTLTLYVGKKQLVEIEKVVLHPNYSQVDIGLIKLKQKVSVNERVMPICLPSKDYAEVGRVGYVSGWGRNANFKFTDHLKYVMLPVADQDQCIRHYEGSTVPEKKTPKSPVGVQPILNEHTFCAGMSKYQEDTCYGDAGSAFAVHDLEEDTWYATGILSFDKSCAVAEYGVYVKVTSIQDWVQKTIAEN
modifications: natural N-linked glycans on Asn 125, 148, 152, 182 (Table 1, type 1 numbering)
notes: Purified from human serum; [α1β]2; The entry is the prepro form; also called purified human Hpt
In the case of B1, the “Ratio to no Hpt addition (%)” value [1] is reported as 72%, the “Ratio to no Hpt addition (%)” value [2] is reported as 39% and the “Ratio to no Hpt addition (%)” value [3] is reported as 85%. For the same binder, the “Ratio to no Hpt addition (%)” value [4] was 75%, the “Ratio to no Hpt addition (%)” value [5] was 91% and the “Ratio to no Hpt addition (%)” value [6] was 88%. The “Ratio to no Hpt addition (%)” value [7] was 94%, the “Ratio to no Hpt addition (%)” value [8] was 95% and the free-Hb concentration left [9] was 57.1 µg/mL. It also gave a free-Hb concentration left [10] of 55.9 µg/mL, a free-Hb concentration left [11] of 50.8 µg/mL and a free-Hb concentration left [12] of 43.7 µg/mL.

B2: Human dHpt (PNGase) (other)
chain: B1 chain
modifications: N-linked glycans (Asn 125, 148, 152, 182) cut off by PNGase F
notes: also called PNGase-treated human Hpt
B2 was tested, and the “Ratio to no Hpt addition (%)” value [1] was 82%, the “Ratio to no Hpt addition (%)” value [2] was 47% and the “Ratio to no Hpt addition (%)” value [3] was 93%. For the same binder, the “Ratio to no Hpt addition (%)” value [4] was 87%, the “Ratio to no Hpt addition (%)” value [5] was 94% and the “Ratio to no Hpt addition (%)” value [6] was 93%. For the same binder, the “Ratio to no Hpt addition (%)” value [7] was 99% and the “Ratio to no Hpt addition (%)” value [8] was 99%.

B3: Human dHpt (ENGase) (other)
chain: B1 chain
modifications: N-linked glycans (Asn 125, 148, 152, 182) cut by Endo F2, which leaves one GlcNAc residue (with or without fucose)
notes: also called ENGase-treated human Hpt
B3 was tested, and the “Ratio to no Hpt addition (%)” value [1] was 87%, the “Ratio to no Hpt addition (%)” value [2] was 65% and the “Ratio to no Hpt addition (%)” value [3] was 93%. The “Ratio to no Hpt addition (%)” value [4] was 86%, the “Ratio to no Hpt addition (%)” value [5] was 98% and the “Ratio to no Hpt addition (%)” value [6] was 94%. For the same binder, the “Ratio to no Hpt addition (%)” value [7] was 98% and the “Ratio to no Hpt addition (%)” value [8] was 98%.
